Test results from ChEMBL document CHEMBL1133708, “A new class of conformationally rigid analogues of 4-amino-5-halopentanoic acids, potent inactivators of gamma-aminobutyric acid aminotransferase” (J Med Chem, 2000).

Chains of the proteins cited; added tags and fusions are not shown. Lines headed by an entry give the natural chain unless they say otherwise; changes in a name come on top.
UniProt P80147: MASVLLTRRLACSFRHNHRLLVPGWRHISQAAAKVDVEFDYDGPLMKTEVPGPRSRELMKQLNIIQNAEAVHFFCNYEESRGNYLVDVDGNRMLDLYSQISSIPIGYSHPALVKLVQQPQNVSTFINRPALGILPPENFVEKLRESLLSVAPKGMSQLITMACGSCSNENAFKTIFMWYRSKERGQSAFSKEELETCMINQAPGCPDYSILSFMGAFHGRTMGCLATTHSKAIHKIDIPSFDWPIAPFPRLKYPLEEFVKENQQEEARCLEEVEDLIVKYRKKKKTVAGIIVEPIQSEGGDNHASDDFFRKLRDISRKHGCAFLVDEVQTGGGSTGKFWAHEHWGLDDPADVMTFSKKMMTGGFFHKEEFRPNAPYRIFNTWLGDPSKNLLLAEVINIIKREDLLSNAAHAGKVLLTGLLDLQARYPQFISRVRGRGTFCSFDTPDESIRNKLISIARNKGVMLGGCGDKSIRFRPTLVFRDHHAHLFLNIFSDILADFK

Target: 4-aminobutyrate aminotransferase, mitochondrial (Sus scrofa, UniProt P80147)
Assay: Compound was evaluated for the competitive inhibition of Gamma-amino-N-butyrate transaminase
How it was run: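 Pig brain GABA aminotransferase (0.15 mg/mL stock) assayed at 25 °C in 120 mM potassium pyrophosphate, pH 8.5, with excess succinic semialdehyde dehydrogenase, 5.3 mM α-ketoglutarate and 1 mM NADP+. GABA ranged 2.7–6.0 mM, with two inhibitor concentrations per GABA level. NADPH was read at 340 nm and % inhibition taken versus an untreated control. Ki was fitted to %I = 100[I]/{[I] + Ki(1 + [GABA]/Km)}.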

N[C@H]1C[C@@H](C(=O)O)CC1(F)F
Ki: 190 µM
